Earlier results in patent US20260373169A1, “SYNERGISTIC COMBINATION FOR THE TREATMENT OF CANCER” (FUNDACIÓN UNIVERSITARIA SAN ANTONIO (UCAM), priority 2023, published 2026).
Like-named read-outs stand apart in the source and are kept apart here.

Tested on: MDA-MB-231 cells
Settings: cited from earlier work

SMILES: COc1cccc2c1C(=O)c1c(O)c3c(c(O)c1C2=O)C[C@@](O)(C(=O)CO)C[C@@H]3O[C@H]1C[C@H](N)[C@H](O)[C@H](C)O1 [Doxorubicin, (7S,9S)-7-[(2R,4S,5S,6S)-4-amino-5-hydroxy-6 methyloxan-2-yl]oxy-6,9,11-trihydroxy-9-(2-hydroxyacetyl)-4-methoxy-8,10-dihydro-7H tetracene-5,12-dione]
- cell viability, of untreated control (0.05 nM Doxorubicin alone): 54%
- cell viability, of untreated control (0.1 nM Doxorubicin alone): 48%
